Assay results as given in patent US20180325947A1 (published 2018).
Entries after “also recorded” stand apart in the source; their conditions may differ.

Tested on: p38 MAPK
Experiment: phospho-p38 MAPK (p-p38) level in human HSCs during ex vivo culture, flow cytometry
Type: cell-based
Details: ex vivo cultures of human MPB CD34+ cells, LV or RV transduced, with vs without inhibitor

`Cc1ccc(-n2nc(C(C)(C)C)cc2NC(=O)Nc2ccc(OCCN3CCOCC3)c3ccccc23)cc1` [BIRB-796, 1-[5-tert-butyl-2-(4-methylphenyl)pyrazol-3-yl]-3-[4-(2-morpholin-4-ylethoxy)naphthalen-1-yl]urea] was tested, and the “p-p38 in hHSCs” value was “decreased; also recorded: significantly decreases” and the “p-p38 in hHSCs” value (listed as p38i) was “significantly lower”.
